Biological target: human μ opioid receptor (Homo sapiens, UniProt P35372)
Test: [35S]GTPγS binding assay, mu (compound alone / with DAMGO)

Chains of the proteins cited; added tags and fusions are not shown.
UniProt P35372, whole entry: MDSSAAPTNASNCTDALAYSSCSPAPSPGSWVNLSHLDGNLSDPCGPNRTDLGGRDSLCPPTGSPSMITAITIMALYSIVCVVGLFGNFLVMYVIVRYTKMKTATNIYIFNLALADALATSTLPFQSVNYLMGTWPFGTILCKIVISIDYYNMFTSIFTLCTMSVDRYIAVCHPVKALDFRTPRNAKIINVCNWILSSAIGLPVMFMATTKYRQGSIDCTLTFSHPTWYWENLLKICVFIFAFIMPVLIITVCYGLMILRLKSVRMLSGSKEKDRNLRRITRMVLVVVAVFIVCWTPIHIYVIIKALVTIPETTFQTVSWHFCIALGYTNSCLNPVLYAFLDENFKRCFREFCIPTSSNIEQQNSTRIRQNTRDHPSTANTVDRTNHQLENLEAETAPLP

## C[N+]1(CC2CC2)CC[C@]23CC(=O)CC[C@@]2(O)[C@H]1Cc1ccc(C(N)=O)c(O)c13 (stereo partly shown) [Compound 6, 3-Carboxamido-4-hydroxy-naltrexone methiodide]
  agonist properties at the μ opioid receptor: did not display any agonist properties

Reference: US20140107143A1, “QUATERNARY OPIOID CARBOXAMIDES” (Rensselaer Polytechnic Institute, priority 2007, published 2014)
